Data taken from PMC3513622 (Antiviral research, 2012).

Legend:
Akata cells = assay: Cell viability of Akata cells, modified MTS assay; conditions: 48 hours, 0.0005-30μM

Row | SMILES | TI (therapeutic index, CC50/IC50 ratio) (Epstein-Barr virus (EBV)) | CC50 (Akata cells)
1 | Nc1ncnc2c1c(I)cn2[C@@H]1O[C@H](CO)[C@@H](O)[C@H]1O [5-Iodotubercidin] | 1 | 1.12 µM
2 | COC(=O)/C=C/c1cc(O)ccc1O [Erbstatin analog] | 2 | 3.9 µM
3 | Cc1ccc(S(=O)(=O)/C=C/C#N)cc1 [BAY 11-7082] | 13 | 
